Target: T1, Enoyl-[acyl-carrier-protein] reductase [NADH] (Mycobacterium tuberculosis (strain ATCC 25618 / H37Rv), UniProt P9WGR1)
T1 sequence (P9WGR1 whole entry): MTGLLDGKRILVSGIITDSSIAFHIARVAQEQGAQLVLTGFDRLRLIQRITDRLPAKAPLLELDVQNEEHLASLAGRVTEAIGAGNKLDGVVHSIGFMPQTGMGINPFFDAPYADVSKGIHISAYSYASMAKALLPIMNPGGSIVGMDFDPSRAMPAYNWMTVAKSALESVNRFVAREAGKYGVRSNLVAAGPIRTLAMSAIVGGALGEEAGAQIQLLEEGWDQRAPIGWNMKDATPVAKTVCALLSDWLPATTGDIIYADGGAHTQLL

CC(C)Cc1cccc(NC(=O)C2CC(=O)N(C3CCCCC3)C2)c1 (stereo unspecified) [1-cyclohexyl-N-[3-(2-methylpropyl)phenyl]-5-oxopyrrolidine-3-carboxamide]
IC50: 5.55 µM

Source: BindingDB's records for doi:10.1021/jm060715y (University of California San Francisco, 2006)
